The list shows a part of the results, in another mix than the full data. Active and inactive are the calls of the source. Rule as the data show it: active = inhibition above about 30%; inactive = the rest.

Amino acid sequences for entries named in this document (tags omitted).
UniProt P09936, whole entry: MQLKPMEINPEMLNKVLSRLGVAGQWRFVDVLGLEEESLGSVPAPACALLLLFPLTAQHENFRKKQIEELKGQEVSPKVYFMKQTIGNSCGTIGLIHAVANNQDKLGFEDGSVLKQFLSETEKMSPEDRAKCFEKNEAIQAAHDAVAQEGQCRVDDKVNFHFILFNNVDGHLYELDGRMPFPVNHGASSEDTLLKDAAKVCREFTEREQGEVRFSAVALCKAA

The target in this test is Ubiquitin carboxyl-terminal hydrolase isozyme L1 (Homo sapiens) (UniProt P09936). The experiment in a line: blocks human UCHL1 ubiquitin-rhodamine cleavage (AID 1645859). The conditions noted are these: purified UCHL1, Ub-rhodamine cleavage fluorescence; at 20 µM; stronger effect = higher value.
As a reminder, the inhibition is the drop in the measured response relative to a control, in per cent. As to `CN(C)c1ccc(C(=O)NCC2(N3CCCCC3)CCCCC2)cc1`, the inhibition is inactive: 2.38%.
As for `N#Cc1ccc(C(=O)NCC2(N3CCCCC3)CCCCC2)cc1`, the figure is inactive: -2.04%.
With `O=C(NCC1(N2CCCCC2)CCCCC1)c1ccc2ncsc2c1` the figure was inactive: -3.8%.
As for `Cc1ccccc1C(=O)NCC1(N2CCOCC2)CCCCC1`, the inhibition is inactive: -1.06%.
As for `Cc1cc(C(=O)NCC2(N3CCOCC3)CCCCC2)c2ccccc2n1`, the figure is inactive: -1.35%.
As for `O=C(NCC1(N2CCOCC2)CCCCC1)c1ccccc1Cl`, the inhibition is inactive: -2.3%.
For `O=C(NCC1(N2CCCCC2)CCCCC1)c1ccc(F)cc1`, the inhibition is inactive: -8.99%.
Turning to `CC1CN(CCc2ccccc2)CCC1=O` (stereo not drawn), the inhibition is inactive: 0.546%.
